# Test results: patent US4743611A, “Naphthalenylsulfonylimidazolidinediones and their thioxo analogs useful as aldose reductase inhibitors” (American Home Products Corp., priority 1987, dated 1988)
# How the values were obtained:
# aldose reductase [1] = target: T1, aldose reductase (Rattus norvegicus, UniProt P07943); assay: lowering of dulcitol accumulation in vivo in lens, sciatic nerve and diaphragm of galactosemic rats; parameters: species or system rat (Sprague-Dawley); conditions: for % lowering dulcitol accumulation in vivo, L: lens
# T1 construct: diminish the accumulation of dulcitol in the lenses, sciatic nerves and diaphragm of rats fed galactose; from tissue; host or cells: lens, sciatic nerve and diaphragm of living male Sprague-Dawley rats
# Source text: Such experiments are exemplified hereinbelow after the listing of the following general comments pertaining to these experiments:
# (a) Four or more groups of six male rats, 50-70 g, Sprague-Dawley strain, were used. The first group, the control group, was fed a mixture of laboratory chow (rodent Laboratory Chow, Purina) and glucose at 20% (w/w %) concentration. The untreated galactosemic group was fed a similar diet in which galactose is substituted for glucose. The third group was fed a diet prepared by mixing a given amount of the test compound with the galactose containing diet. The concentration of galactose in the diet of the treated groups was the same as that for the untreated galactosemic group.
# (b) After four days, the animals were killed by decapitation. The eyeballs were removed and punctured with a razor blade; the freed lenses were rolled gently on filter paper and weighed. The sciatic nerves were dissected as completely as possible and weighed. Both tissues when frozen can be kept up to two weeks before being analyzed for dulcitol.
# Only two minor reagent changes were made: (a) The rinsing mixture was an aqueous 5% (w/v) trichloroacetic acid solution and (b) the stock solution was prepared by dissolving 25 mg of dulcitol in 100 ml of an aqueous trichloroacetic acid solution. [N.B.: For each experiment the average value found in the tissue from rats fed the glucose diet was subtracted from the individual values found in the corresponding tissue in galactose-fed rats to obtain the amount of polyol accumulated.]
# The figures under L, N and D represent the percentage decrease of dulcitol accumulation in the tissues of the lens, sciatic nerve and diaphragm, respectively, for treated rats as compared to untreated rats.
# aldose reductase [2] = target: T2, aldose reductase (Bos taurus, UniProt P16116); assay: in vitro inhibition of aldose reductase (enzyme from bovine lens, modified Hayman and Kinoshita procedure); type: biochemical; conditions: 10^-6
# T2 construct: preparation of the enzyme from bovine lens; from tissue; host or cells: bovine lens
# Experimental: […] The aldose reductase inhibiting effects of the compounds of formula (I) were also tested by employing an in vitro testing procedure similar to that described by S. Hayman and J. H. Kinoshita, J. Biol. Chem., 240, 877 (1965).
# In the present case the procedure of Hayman and Kinoshita was modified in that the final chromatography step was omitted in the preparation of the enzyme from bovine lens.
"% lowering dulcitol accumulation in vivo, D (aldose reductase [1]; diaphragm, 4 mg/kg/day in diet)","% lowering dulcitol accumulation in vivo, L (aldose reductase [1]; 4 mg/kg/day in diet)","% lowering dulcitol accumulation in vivo, L (aldose reductase [1]; 11 mg/kg/day in diet)",SMILES,inhibition at 1 µM (aldose reductase [2])
80%,0%,14%,"COc1ccc2c(C(=S)N(C)CC(=O)O)cccc2c1C(F)(F)F [tolrestat, N-[[6-methoxy-5-(trifluoromethyl)-1-naphthalenyl]thioxomethyl]-N-methylglycine, reference compound]",–
–,–,–,"O=C1CN(S(=O)(=O)c2cccc3c(I)cccc23)C(=O)N1 [Example 18, 1-[(5-iodo-1-naphthalenyl)sulfonyl]-2,4-imidazolidinedione]",89%
